Assay results published in ChEMBL document CHEMBL5506011, “Discovery of novel and selective farnesoid X receptor antagonists through structure-based virtual screening, preliminary structure-activity relationship study, and biological evaluation” (Eur J Med Chem, 2024).

The chains behind the UniProt entries cited, without tags or fusion partners.
UniProt P13631, whole entry: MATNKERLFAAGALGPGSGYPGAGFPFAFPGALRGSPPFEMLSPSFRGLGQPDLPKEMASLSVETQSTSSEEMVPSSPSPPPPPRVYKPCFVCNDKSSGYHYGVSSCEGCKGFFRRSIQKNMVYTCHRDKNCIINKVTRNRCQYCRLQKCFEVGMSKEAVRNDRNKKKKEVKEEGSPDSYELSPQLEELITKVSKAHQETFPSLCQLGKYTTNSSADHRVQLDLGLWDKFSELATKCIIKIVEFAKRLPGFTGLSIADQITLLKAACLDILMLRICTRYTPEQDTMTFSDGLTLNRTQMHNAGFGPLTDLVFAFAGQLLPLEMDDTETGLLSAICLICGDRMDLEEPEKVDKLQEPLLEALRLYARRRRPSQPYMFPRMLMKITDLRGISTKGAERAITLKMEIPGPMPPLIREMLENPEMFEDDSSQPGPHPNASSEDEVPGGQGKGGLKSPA
UniProt P10826, whole entry: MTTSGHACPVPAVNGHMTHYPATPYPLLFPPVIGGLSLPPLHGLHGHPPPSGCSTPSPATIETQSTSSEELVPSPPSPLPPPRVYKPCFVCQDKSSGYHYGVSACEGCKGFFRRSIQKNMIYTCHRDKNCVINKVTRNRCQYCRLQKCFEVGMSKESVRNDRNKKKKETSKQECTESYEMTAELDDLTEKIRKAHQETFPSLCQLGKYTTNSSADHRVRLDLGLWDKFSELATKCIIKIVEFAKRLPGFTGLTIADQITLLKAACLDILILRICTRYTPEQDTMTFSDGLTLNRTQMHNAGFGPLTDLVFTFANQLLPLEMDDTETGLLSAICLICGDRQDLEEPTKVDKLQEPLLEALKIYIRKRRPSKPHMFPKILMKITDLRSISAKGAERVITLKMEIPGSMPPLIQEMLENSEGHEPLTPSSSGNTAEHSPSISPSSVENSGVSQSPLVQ

What was measured:
[1] = molecular target: Retinoic acid receptor gamma (Homo sapiens) (UniProt P13631); test: Antagonist activity at human RARgamma transfected in HEK293T cells co-transfected with RARE-luciferase gene assessed as transactivation measured after 24 hrs by cell-based dual-luciferase reporter gene assay
[2] = molecular target: Retinoic acid receptor beta (Homo sapiens) (UniProt P10826); test: Antagonist activity at human RARbeta transfected in HEK293T cells co-transfected with RARE-luciferase gene assessed as transactivation measured after 24 hrs by cell-based dual-luciferase reporter gene assay
[3] = molecular target: Retinoic acid receptor gamma (Homo sapiens) (UniProt P13631); test: Agonist activity at human RARgamma transfected in HEK293T cells co-transfected with RARE-luciferase gene assessed as transactivation measured after 24 hrs by cell-based dual-luciferase reporter gene assay
[4] = molecular target: Retinoic acid receptor beta (Homo sapiens) (UniProt P10826); test: Agonist activity at human RARbeta transfected in HEK293T cells co-transfected with RARE-luciferase gene assessed as transactivation measured after 24 hrs by cell-based dual-luciferase reporter gene assay

Measured: Activity

CCN(CC)c1ccc(CN(CC2CC2)C(=O)NC(C)(C)C)c(OS(=O)(=O)c2ccc(NC(C)=O)cc2)c1
inactive: all assays above

Calls of active or inactive are those of the source.
